Reference: US5280119A, “Heterocyclic amine-boranes, and method of inhibiting DNA topoisomerase activity and/or combatting inflammation, hyperlipidemia, and/or neoplasia using amine-borane compounds” (dated 1994)

Protein sequences, listed by entry. Tags and fused reporters are not part of them. Lines headed by an entry give the natural chain unless they say otherwise; changes in a name come on top.
UniProt P11388: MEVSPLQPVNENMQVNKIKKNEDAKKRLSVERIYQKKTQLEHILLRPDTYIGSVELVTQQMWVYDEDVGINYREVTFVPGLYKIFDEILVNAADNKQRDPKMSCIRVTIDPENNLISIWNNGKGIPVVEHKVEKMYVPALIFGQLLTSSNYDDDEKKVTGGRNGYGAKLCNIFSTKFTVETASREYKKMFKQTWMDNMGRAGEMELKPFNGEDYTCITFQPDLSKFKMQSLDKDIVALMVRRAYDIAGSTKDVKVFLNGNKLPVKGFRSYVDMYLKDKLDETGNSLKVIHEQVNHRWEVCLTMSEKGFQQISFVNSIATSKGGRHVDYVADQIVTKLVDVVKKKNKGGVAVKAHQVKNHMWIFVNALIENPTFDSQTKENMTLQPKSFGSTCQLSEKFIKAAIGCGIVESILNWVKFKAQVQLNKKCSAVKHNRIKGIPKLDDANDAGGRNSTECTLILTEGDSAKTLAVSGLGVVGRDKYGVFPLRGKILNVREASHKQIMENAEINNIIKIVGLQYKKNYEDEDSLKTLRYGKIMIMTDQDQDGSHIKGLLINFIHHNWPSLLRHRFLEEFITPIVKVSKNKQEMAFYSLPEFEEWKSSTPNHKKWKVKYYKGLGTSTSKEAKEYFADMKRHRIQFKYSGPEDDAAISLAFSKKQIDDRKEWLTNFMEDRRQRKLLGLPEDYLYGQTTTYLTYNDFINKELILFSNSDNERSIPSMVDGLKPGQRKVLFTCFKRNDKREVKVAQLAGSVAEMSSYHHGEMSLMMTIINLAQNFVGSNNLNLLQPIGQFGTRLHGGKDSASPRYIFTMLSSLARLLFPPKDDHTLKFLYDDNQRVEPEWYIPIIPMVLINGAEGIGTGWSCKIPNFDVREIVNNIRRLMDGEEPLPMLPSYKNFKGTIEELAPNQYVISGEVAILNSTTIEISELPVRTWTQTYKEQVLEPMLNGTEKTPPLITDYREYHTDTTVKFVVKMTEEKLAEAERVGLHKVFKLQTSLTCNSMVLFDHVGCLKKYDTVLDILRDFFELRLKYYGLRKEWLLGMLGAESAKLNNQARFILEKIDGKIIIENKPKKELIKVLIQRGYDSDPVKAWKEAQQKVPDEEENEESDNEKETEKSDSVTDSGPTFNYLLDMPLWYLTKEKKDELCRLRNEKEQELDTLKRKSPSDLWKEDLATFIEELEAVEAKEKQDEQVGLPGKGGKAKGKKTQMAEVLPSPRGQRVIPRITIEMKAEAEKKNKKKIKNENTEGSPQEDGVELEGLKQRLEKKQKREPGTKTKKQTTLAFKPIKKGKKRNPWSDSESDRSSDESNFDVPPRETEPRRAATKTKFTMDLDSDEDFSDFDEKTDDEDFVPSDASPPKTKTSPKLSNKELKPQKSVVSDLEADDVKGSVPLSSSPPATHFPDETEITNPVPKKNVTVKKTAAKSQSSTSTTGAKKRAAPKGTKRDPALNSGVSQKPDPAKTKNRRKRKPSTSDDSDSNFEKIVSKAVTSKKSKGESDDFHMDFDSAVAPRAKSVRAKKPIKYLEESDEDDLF
UniProt Q64505: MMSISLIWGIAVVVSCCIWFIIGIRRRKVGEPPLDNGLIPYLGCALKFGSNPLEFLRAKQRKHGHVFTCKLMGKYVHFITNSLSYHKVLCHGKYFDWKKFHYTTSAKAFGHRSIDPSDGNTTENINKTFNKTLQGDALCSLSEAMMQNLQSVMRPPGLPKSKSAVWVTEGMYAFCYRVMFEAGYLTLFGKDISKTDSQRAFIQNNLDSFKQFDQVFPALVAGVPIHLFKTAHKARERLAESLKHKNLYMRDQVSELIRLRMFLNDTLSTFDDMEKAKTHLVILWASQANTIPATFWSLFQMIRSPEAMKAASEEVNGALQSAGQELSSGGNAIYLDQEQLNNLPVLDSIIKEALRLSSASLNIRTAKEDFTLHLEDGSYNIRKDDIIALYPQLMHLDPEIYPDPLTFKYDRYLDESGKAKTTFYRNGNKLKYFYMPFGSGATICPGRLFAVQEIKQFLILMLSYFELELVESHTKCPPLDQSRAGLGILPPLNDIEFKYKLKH
UniProt Q9QXG4, whole entry, looked up: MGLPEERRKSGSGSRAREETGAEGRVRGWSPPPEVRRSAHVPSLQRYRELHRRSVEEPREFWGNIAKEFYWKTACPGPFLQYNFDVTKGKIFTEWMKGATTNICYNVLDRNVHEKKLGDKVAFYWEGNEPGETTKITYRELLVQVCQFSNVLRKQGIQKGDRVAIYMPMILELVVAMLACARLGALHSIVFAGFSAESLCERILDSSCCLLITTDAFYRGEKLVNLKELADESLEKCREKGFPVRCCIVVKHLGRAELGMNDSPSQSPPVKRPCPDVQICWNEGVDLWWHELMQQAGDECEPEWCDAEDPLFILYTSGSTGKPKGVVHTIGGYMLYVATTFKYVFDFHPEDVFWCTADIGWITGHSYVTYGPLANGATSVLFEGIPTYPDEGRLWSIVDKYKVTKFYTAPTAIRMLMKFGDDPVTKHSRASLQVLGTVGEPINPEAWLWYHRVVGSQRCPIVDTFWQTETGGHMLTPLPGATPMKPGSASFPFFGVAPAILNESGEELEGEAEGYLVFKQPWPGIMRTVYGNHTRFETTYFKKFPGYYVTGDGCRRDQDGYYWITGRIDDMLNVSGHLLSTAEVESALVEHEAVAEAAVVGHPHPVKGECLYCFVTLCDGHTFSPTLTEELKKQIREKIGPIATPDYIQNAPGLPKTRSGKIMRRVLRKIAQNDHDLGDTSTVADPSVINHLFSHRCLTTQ
UniProt O88908: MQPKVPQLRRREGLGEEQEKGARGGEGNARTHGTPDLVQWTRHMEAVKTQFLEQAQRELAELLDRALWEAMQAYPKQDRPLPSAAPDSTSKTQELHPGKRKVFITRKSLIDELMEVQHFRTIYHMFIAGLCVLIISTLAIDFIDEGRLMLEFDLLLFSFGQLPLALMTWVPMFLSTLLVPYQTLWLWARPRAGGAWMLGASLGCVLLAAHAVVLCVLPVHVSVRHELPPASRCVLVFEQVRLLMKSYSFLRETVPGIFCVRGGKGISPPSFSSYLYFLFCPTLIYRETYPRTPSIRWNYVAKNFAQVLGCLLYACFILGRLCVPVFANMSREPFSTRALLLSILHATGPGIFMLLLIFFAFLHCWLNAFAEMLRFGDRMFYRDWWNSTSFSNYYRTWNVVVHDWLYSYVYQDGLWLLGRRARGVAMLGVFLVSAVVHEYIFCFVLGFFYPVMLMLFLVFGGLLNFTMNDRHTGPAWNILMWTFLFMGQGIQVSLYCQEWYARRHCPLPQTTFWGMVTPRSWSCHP
UniProt Q91V92: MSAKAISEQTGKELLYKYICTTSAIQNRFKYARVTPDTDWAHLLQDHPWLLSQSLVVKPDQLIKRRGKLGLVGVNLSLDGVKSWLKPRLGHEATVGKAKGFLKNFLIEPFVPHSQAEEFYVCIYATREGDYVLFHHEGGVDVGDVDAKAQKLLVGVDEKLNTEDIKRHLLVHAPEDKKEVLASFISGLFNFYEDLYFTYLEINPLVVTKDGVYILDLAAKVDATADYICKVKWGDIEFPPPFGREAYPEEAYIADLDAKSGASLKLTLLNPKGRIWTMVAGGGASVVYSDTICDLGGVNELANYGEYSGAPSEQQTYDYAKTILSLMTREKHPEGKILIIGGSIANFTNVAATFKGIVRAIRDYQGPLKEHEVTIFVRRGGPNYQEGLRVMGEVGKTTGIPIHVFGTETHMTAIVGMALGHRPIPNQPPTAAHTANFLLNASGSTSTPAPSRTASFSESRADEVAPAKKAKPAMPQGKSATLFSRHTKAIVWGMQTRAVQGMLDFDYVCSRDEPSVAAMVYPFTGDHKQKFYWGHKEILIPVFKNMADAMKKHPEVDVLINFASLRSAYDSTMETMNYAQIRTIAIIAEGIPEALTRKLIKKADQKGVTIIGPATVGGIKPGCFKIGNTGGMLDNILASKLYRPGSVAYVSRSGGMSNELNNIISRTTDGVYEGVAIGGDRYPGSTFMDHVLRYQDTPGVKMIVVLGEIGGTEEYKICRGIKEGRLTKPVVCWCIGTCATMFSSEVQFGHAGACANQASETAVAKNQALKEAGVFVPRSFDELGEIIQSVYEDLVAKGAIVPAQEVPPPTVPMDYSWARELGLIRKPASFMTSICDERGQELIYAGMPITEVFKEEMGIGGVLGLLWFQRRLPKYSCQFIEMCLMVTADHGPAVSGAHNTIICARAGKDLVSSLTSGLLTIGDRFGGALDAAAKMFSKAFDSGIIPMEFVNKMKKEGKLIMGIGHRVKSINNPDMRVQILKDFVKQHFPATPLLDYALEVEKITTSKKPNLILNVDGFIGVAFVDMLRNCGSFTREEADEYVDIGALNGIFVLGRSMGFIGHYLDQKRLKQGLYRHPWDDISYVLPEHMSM

Legend:
[1] = tested on: human Tmolt3 acute lymphoblastic T cell leukemia; assay: Cytotoxicity, Tmolt3; settings: trypan blue exclusion
[2] = tested on: HeLa-S^3 suspended cervical carcinoma; assay: Cytotoxicity, HeLa-S3; settings: hela-s3 cells
L1210 leukemia = assay: in vivo L1210 leukemia screen; settings: 20 mg/kg/day
glioma EH 118 MG = assay: Cytotoxicity, glioma EH 118 MG; settings: eh 118 mg cells
osteosarcoma TE418 = assay: Cytotoxicity, osteosarcoma TE418; settings: te418 cells
[3] = Hypolipidemic screen in normal mice; settings: CF1 male mice, IP; for Serum Cholesterol Day 9 / Serum Cholesterol Day 16 / Serum Triglycerides Day 16: N = 6
[4] = tested on: murine L1210 lymphoid leukemia; assay: Cytotoxicity, L1210 lymphoid leukemia; settings: trypan blue exclusion
Lewis lung carcinoma = assay: In vivo Lewis lung carcinoma activity; settings: 8 mg/kg/day I.P.
[5] = tested on: lung bronchogenic MB-9812; assay: Cytotoxicity, lung bronchogenic MB-9812; settings: for ED50 Cytotoxicity, Human Lung Bronchogenic: concentration which inhibits 50% of cell growth
[6] = tested on: P388 lymphocytic leukemia; assay: Cytotoxicity, P388 lymphocytic leukemia; settings: for ED50 Cytotoxicity, P388 Lymphocytic Leukemia: p388 cells
[7] = tested on: KB epidermoid nasopharynx; assay: Cytotoxicity, KB epidermoid nasopharynx; settings: for ED50 Cytotoxicity, Human KB: kb cells
[8] = tested on: colorectal adenocarcinoma SW480; assay: Cytotoxicity, colorectal adenocarcinoma SW480; settings: sw480 cells
[9] = biological target: DNA topoisomerase II (HeLa) (Homo sapiens, UniProt P11388); assay: DNA topoisomerase II inhibition (unknotting of knotted DNA); settings: one hour reaction, agarose gel
[10] = Serum lipoprotein fractions; settings: rats, 8 mg/kg/day orally 14 days, N = 6
[11] = tested on: P388 lymphocytic leukemia; assay: in vivo P388 lymphocytic screen; settings: 20 mg/kg/day I.P.
Acetyl CoA Carboxylase = Acetyl CoA Carboxylase (Mus musculus, UniProt Q5SWU9); assay: Acetyl CoA carboxylase, liver in vitro
[12] = biological target: Cholesterol 7α Hydroxylase (Mus musculus, UniProt Q64505); assay: Cholesterol-7α-hydroxylase, liver in vitro
[13] = Anti-inflammatory activity, carrageenan paw; settings: CF1 Mice, 20 mg/kg × 2 (table head; b1373: 8 mg/kg i.p. 3 hours and 30 minutes before carrageenan)
Acetyl CoA Synthetase = Acetyl CoA Synthetase (Mus musculus, UniProt Q9QXG4); assay: Acetyl CoA synthetase, liver homogenate in vitro; settings: 30 min
[14] = tested on: Phosphatidylate Phosphohydrolase; assay: Phosphatidylate phosphohydrolase, liver in vitro; settings: 30 min
[15] = tested on: Neutral Cholesterol Ester Hydrolase; assay: Neutral cholesterol ester hydrolase, liver in vitro
[16] = biological target: Acyl CoA Cholesterol Acyl Transferase (Mus musculus, UniProt O88908); assay: Acyl CoA cholesterol acyl transferase, liver in vitro
[17] = biological target: ATP Dependent Citrate Lyase (Mus musculus, UniProt Q91V92); assay: ATP dependent citrate lyase, liver homogenate in vitro; settings: 30 min
[18] = tested on: SN Glycerol 3 Phosphate Acyl Transferase; assay: sn-Glycerol-3-phosphate acyl transferase, liver in vitro
[19] = tested on: Mitochondrail Citrate Lyase; assay: Mitochondrial citrate exchange, liver homogenate in vitro; settings: N = 6, 10 min
HMG CoA Reductase = assay: HMG CoA reductase (cholesterol synthesis), liver in vitro
[20] = Liver, small intestine, aorta, bile and fecal lipid extraction; settings: rats, 8 mg/kg/day orally 14 days
[21] = Hypolipidemic screen in normal rats (serum lipids, body weight, food)
[22] = Sprague Dawley male rats, 8 mg/kd/day orally (clofibrate 150 mg/kg/day)

COC(=O)[BH2-][NH+]1CCC(C)CC1 (stereo not shown)
ED50 Cytotoxicity, Human lymphocyte Tmolt3 [1]: 4.19 µg/mL (≈ 24.5 µM) | ED50 Cytotoxicity, Human HeLa-S^3 [2]: 2.03 µg/mL (≈ 11.9 µM) | T/C%, L1210 leukemia screen in vivo (L1210 leukemia): inactive | ED50 Cytotoxicity, Human Glioma (glioma EH 118 MG): 1.67 µg/mL (≈ 9.76 µM) | ED50 Cytotoxicity, Human Osteo-Sarcoma (osteosarcoma TE418): 6.26 µg/mL (≈ 36.6 µM) | Serum Cholesterol Day 9 ([3]; 5 Mg/kg/day): 92 ± 6% of Control | Serum Cholesterol Day 16 ([3]; 5 Mg/kg/day): 83 ± 4% of Control | Serum Triglycerides Day 16 ([3]; 5 Mg/kg/day): 76 ± 6% of Control | ED50 Cytotoxicity, L1210 Lymphoid Leukemia [4]: 3.00 µg/mL (≈ 17.5 µM) | T/C%, in vivo Lewis lung carcinoma (Lewis lung carcinoma): inactive | ED50 Cytotoxicity, Human Lung Bronchogenic [5]: 3.72 µg/mL (≈ 21.7 µM) | activity against growth of lung bronchogenic tumor (in words) ([5]; text summary of Table 4): significant activity | ED50 Cytotoxicity, P388 Lymphocytic Leukemia [6]: 4.87 µg/mL (≈ 28.5 µM) | ED50 Cytotoxicity, Human KB [7]: 2.18 µg/mL (≈ 12.7 µM) | activity in the KB nasopharynx screen (in words) ([7]; text summary of Table 4): good activity | ED50 Cytotoxicity, Human Colon SW480 [8]: 6.63 µg/mL (≈ 38.8 µM) | Inhibitory Concentration, Topoisomerase II [9]: 100 µM

COC(=O)[BH2-][NH+]1CCC(c2ccccc2)CC1 (stereo not shown)
ED50 Cytotoxicity, Human lymphocyte Tmolt3 [1]: 2.34 µg/mL (≈ 10 µM) | ED50 Cytotoxicity, Human HeLa-S^3 [2]: 2.92 µg/mL (≈ 12.5 µM) | Chylomicron Cholesterol [10]: 98 ± 7% of Control | Chylomicron Neutral Lipids [10]: 75 ± 4% of Control | Chylomicron Phospholipids [10]: 22 ± 7% of Control | Chylomicron Protein [10]: 103 ± 5% of Control | Chylomicron Triglyceride [10]: 116 ± 8% of Control | HDL Cholesterol [10]: 209 ± 10% of Control | HDL Neutral Lipids [10]: 97 ± 6% of Control | HDL Phospholipids [10]: 58 ± 5% of Control | HDL Protein [10]: 89 ± 7% of Control | HDL Triglyceride [10]: 104 ± 5% of Control | LDL Cholesterol [10]: 28 ± 3% of Control | LDL Neutral Lipids [10]: 62 ± 5% of Control | LDL Phospholipids [10]: 124 ± 6% of Control | LDL Protein [10]: 81 ± 6% of Control | LDL Triglyceride [10]: 48 ± 5% of Control | VLDL Cholesterol [10]: 39 ± 4% of Control | VLDL Neutral Lipids [10]: 92 ± 8% of Control | VLDL Phospholipids [10]: 56 ± 6% of Control | VLDL Protein [10]: 98 ± 7% of Control | VLDL Triglyceride [10]: 93 ± 7% of Control | ED50 Cytotoxicity, Human Glioma (glioma EH 118 MG): 2.36 µg/mL (≈ 10.1 µM) | T/C%, in vivo P388 lymphocytic screen [11]: 149% | ED50 Cytotoxicity, Human Osteo-Sarcoma (osteosarcoma TE418): 6.65 µg/mL (≈ 28.5 µM) | Serum Cholesterol Day 9 ([3]; 8 Mg/kg/day): 75 ± 4% of Control | Serum Cholesterol Day 16 ([3]; 8 Mg/kg/day): 59 ± 4% of Control | Serum Triglycerides Day 16 ([3]; 8 Mg/kg/day): 73 ± 5% of Control | serum cholesterol level lowered ([3]; doses of Table 6): 41% | ED50 Cytotoxicity, L1210 Lymphoid Leukemia [4]: 2.62 µg/mL (≈ 11.2 µM) | ED50 Cytotoxicity, Human Lung Bronchogenic [5]: 4.75 µg/mL (≈ 20.4 µM) | Acetyl CoA Carboxylase (Acetyl CoA Carboxylase; 25 μM): 102 ± 6% of Control | Acetyl CoA Carboxylase (Acetyl CoA Carboxylase; 50 μM): 52 ± 4% of Control | Acetyl CoA Carboxylase (Acetyl CoA Carboxylase; 100 μM): 45 ± 4% of Control | ED50 Cytotoxicity, P388 Lymphocytic Leukemia [6]: 4.00 µg/mL (≈ 17.2 µM) | activity in the murine P388 lymphocytic screen (in words) ([6]; text summary of Table 4): marginally active | ED50 Cytotoxicity, Human KB [7]: 5.62 µg/mL (≈ 24.1 µM) | Cholesterol 7α Hydroxylase ([12]; 25 μM): 102 ± 5% of Control | Cholesterol 7α Hydroxylase ([12]; 50 μM): 117 ± 9% of Control | Cholesterol 7α Hydroxylase ([12]; 100 μM): 121 ± 6% of Control | % of Control, anti-inflammatory (paw weight increase) [13]: 67 % of Control | ED50 Cytotoxicity, Human Colon SW480 [8]: 7.41 µg/mL (≈ 31.8 µM) | Acetyl CoA Synthetase (Acetyl CoA Synthetase; 25 μM): 80 ± 5% of Control | Acetyl CoA Synthetase (Acetyl CoA Synthetase; 50 μM): 73 ± 5% of Control | Acetyl CoA Synthetase (Acetyl CoA Synthetase; 100 μM): 47 ± 5% of Control | Phosphatidylate Phosphohydrolase ([14]; 25 μM): 112 ± 5% of Control | Phosphatidylate Phosphohydrolase ([14]; 50 μM): 99 ± 7% of Control | Phosphatidylate Phosphohydrolase ([14]; 100 μM): 90 ± 7% of Control | Neutral Cholesterol Ester Hydrolase ([15]; 25 μM): 153 ± 8% of Control | Neutral Cholesterol Ester Hydrolase ([15]; 50 μM): 296 ± 12% of Control | Neutral Cholesterol Ester Hydrolase ([15]; 100 μM): 338 ± 10% of Control | Acyl CoA Cholesterol Acyl Transferase ([16]; 25 μM): 128 ± 7% of Control | Acyl CoA Cholesterol Acyl Transferase ([16]; 50 μM): 96 ± 5% of Control | Acyl CoA Cholesterol Acyl Transferase ([16]; 100 μM): 82 ± 5% of Control | ATP Dependent Citrate Lyase ([17]; 25 μM): 59 ± 4% of Control | ATP Dependent Citrate Lyase ([17]; 50 μM): 26 ± 3% of Control | ATP Dependent Citrate Lyase ([17]; 100 μM): 14 ± 3% of Control | SN Glycerol 3 Phosphate Acyl Transferase ([18]; 25 μM): 103 ± 7% of Control | SN Glycerol 3 Phosphate Acyl Transferase ([18]; 50 μM): 105 ± 6% of Control | SN Glycerol 3 Phosphate Acyl Transferase ([18]; 100 μM): 111 ± 6% of Control | Mitochondrail Citrate Lyase ([19]; 25 μM): 100 ± 7% of Control | Mitochondrail Citrate Lyase ([19]; 50 μM): 98 ± 6% of Control | Mitochondrail Citrate Lyase ([19]; 100 μM): 77 ± 5% of Control | HMG CoA Reductase (HMG CoA Reductase; 25 μM): 77 ± 4% of Control | HMG CoA Reductase (HMG CoA Reductase; 50 μM): 70 ± 5% of Control | HMG CoA Reductase (HMG CoA Reductase; 100 μM): 67 ± 4% of Control | Aorta Cholesterol [20]: 84 ± 6% of Control | Aorta Neutral Lipids [20]: 153 ± 5% of Control | Aorta Phosphate Lipids [20]: 75 ± 5% of Control | Aorta Protein [20]: 105 ± 6% of Control | Aorta Triglyceride [20]: 81 ± 6% of Control | Aorta mg Lipid Extracted [20]: 115 ± 7% of Control | Bile Cholesterol [20]: 201 ± 12% of Control | Bile Neutral Lipids [20]: 118 ± 6% of Control | Bile Phosphate Lipids [20]: 104 ± 9% of Control | Bile Protein [20]: 125 ± 6% of Control | Bile Triglyceride [20]: 106 ± 5% of Control | Liver Cholesterol [20]: 97 ± 7% of Control | Liver Neutral Lipids [20]: 132 ± 7% of Control | Liver Phosphate Lipids [20]: 102 ± 6% of Control | Liver Protein [20]: 124 ± 5% of Control | Liver Triglyceride [20]: 22 ± 3% of Control | Liver mg Lipid Extracted [20]: 103 ± 5% of Control | Small Intestine Cholesterol [20]: 93 ± 7% of Control | Small Intestine Neutral Lipids [20]: 102 ± 6% of Control | Small Intestine Phosphate Lipids [20]: 20 ± 2% of Control | Small Intestine Protein [20]: 119 ± 5% of Control | Small Intestine Triglyceride [20]: 165 ± 6% of Control | Small Intestine mg Lipid Extracted [20]: 108 ± 7% of Control | Feces Cholesterol ([20]; 24 h collection): 239 ± 12% of Control | Feces Neutral Lipids ([20]; 24 h collection): 97 ± 8% of Control | Feces Phosphate Lipids ([20]; 24 h collection): 255 ± 6% of Control | Feces Protein ([20]; 24 h collection): 205 ± 9% of Control | Feces Triglyceride ([20]; 24 h collection): 85 ± 6% of Control | Feces mg Lipid Extracted ([20]; 24 h collection): 296 ± 10% of Control | Serum Cholesterol Day 7 [21, 22]: 47 ± 5% of Control | Serum Cholesterol Day 14 [21, 22]: 49 ± 4% of Control | Serum Triglycerides Day 7 [21, 22]: 81 ± 7% of Control | Serum Triglycerides Day 14 [21, 22]: 52 ± 5% of Control | Percent Body Wt ([21]; Sprague Dawley male rats, 14 days at 8 mg/kd/day orally, 1% CMC control 131): 125% | Daily food consumption reduced ([21]; rats, 8 mg/kg/day orally): 14% | rat serum cholesterol levels lowered ([21]; rats, 8 mg/kg/day orally, after 14 days): greater than 40% | rat serum triglyceride levels reduced ([21]; rats, 8 mg/kg/day orally, day 14): 48% | reduction of the total body weight increase ([21]; rats, 8 mg/kg/day orally, over 14 days): 6%

Values after ≈ are worked out from the molar mass of the structure shown.
